We go through two molecules from BindingDB's records for doi:10.1038/nchembio.421 (Novartis Institutes for BioMedical Research, 2010).

Usually IC50 stands for the concentration at which inhibition is half-maximal. Low readings indicate inhibition by little substance, high ones a need for much substance.

The target of this test is T1, Farnesyl pyrophosphate synthase (Homo sapiens, UniProt P14324).
T1 sequence (P14324 whole entry): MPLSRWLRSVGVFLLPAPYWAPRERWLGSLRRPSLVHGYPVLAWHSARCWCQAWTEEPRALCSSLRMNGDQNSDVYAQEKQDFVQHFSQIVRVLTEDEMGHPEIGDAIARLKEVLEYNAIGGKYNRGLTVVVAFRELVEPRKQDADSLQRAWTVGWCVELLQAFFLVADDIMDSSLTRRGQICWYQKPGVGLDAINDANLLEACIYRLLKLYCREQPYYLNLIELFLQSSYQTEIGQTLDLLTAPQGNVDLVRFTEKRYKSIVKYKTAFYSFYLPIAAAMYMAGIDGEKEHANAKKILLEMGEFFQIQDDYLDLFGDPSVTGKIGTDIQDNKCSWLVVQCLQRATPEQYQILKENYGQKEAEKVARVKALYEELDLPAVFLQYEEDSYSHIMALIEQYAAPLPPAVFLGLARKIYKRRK
Briefly: Biophysical assay. To be noted: pH 7.4; 23 °C.

As for `O=C(O)Cc1c(C(=O)O)[nH]c2c(Cl)ccc(Cl)c12` [CID46398841], the half-inhibitory concentration (IC50) is 2 µM. Consider `O=C(O)Cc1c(C(=O)O)[nH]c2c(Cl)cc(Cl)cc12` [CID46398845], for which half-maximal inhibition (IC50) was put at 6 µM.
